The list shows a part of the results, in another mix than the full data. Some results for these compounds are left out of this collection, so the calls shown say nothing about other tests. Active and inactive are the calls of the source.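 The calls were made as follows: active = inhibition above the mean of all tested compounds plus 3 SD (cut at about 43% in these data); inactive = the rest.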

Sequences of proteins named here, by UniProt entry; tags and fusion partners are left off.
UniProt P08908, whole entry: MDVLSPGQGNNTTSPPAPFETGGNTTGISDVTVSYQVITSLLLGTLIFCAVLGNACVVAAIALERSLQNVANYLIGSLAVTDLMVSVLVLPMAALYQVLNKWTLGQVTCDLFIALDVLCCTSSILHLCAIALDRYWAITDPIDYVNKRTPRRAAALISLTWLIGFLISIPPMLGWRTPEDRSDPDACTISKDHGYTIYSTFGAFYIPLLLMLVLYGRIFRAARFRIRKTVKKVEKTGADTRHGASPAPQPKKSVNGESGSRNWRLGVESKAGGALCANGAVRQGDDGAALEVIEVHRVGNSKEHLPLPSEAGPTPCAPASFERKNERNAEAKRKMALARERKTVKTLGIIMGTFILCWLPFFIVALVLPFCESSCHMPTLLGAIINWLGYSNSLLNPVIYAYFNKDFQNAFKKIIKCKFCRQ

This test addresses 5-hydroxytryptamine receptor 1A (Homo sapiens) (UniProt P08908). The test is described as follows: human 5-HT1a receptor antagonists, primary screen, cell-based, CHO, Ga15 NFAT-bla reporter (AID 612).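 Also: receptor stimulated by 5-CT agonist at 100 nM near EC80; beta-lactamase reporter measured by ratiometric fluorescence of a cleavable substrate.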 Conditions: CHO 5-HT1a Ga15 NFAT-bla reporter, antagonist mode; at 10 µM; hits give high values.
In the case of `O=C(OC1CN2CCC1CC2)C(CO)(c1ccccc1)c1ccccc1` (configuration not stated), the inhibition (as a rule, the change of the read-out against control, counted positive when it falls) is inactive: -1.9%.

As to `CN(C)c1cccc(C(=O)NCC2(N(C)C)CCCCC2)c1`, the inhibition was inactive: -2%.

The values above are taken from PubChem BioAssay AID612 (The Scripps Research Institute Molecular Screening Center, 2007).
